Laboratory results from US8309534B2, “Compositions comprising a GPR109 ligand for treating disorders of the digestive tract and/or cancer” (Medical College of Georgia Research Institute, Inc., priority 2007, dated 2012).

Tested on: LPS-induced activation of NF-κB promoter in CCD841 cells
Settings: ligand 1 mM 8 h, then LPS 100 ng/ml 4 h, luciferase
From the text: The anti-inflammatory effect of butyrate was monitored in colonic cells by its ability to suppress LPS-induced activation of NF-κB promoter with luciferase as the reporter. The participation of SLC5A8 and GPR109A in mediating the effects of extracellular butyrate was differentiated first by using specific ligands. If SLC5A8 is involved in the process, the transporter-facilitated entry of butyrate followed by inhibition of histone deacetylases (HDACs) inside the cells would be responsible for the effects. If GPR109A is involved in the process, the activation of the receptor by extracellular butyrate would be responsible for the effects. […] In these experiments, cells were first transfected with the construct carrying the NF-κB-luciferase, pretreated with GPR109A ligands (1 mM) for 8 h and then exposed to LPS (100 ng/ml) for 4 h. Following the treatment, cell lysates were used to measure luciferase activity as a read-out for activation of NF-κB.

CC1(c2ccccc2)OC(C(=O)O)=CC1=O (stereo not shown) [acifran]
effect on LPS-induced activation of NF-κB promoter: able to block LPS-induced activation of NF-κB promoter
